Laboratory results from US20250195530A1, “POLQ INHIBITORS” (ASTRAZENECA AB, priority 2022, published 2025).

The chains behind the UniProt entries cited, without tags or fusion partners. Residues count along the entry.
UniProt O75417, 1780-2590: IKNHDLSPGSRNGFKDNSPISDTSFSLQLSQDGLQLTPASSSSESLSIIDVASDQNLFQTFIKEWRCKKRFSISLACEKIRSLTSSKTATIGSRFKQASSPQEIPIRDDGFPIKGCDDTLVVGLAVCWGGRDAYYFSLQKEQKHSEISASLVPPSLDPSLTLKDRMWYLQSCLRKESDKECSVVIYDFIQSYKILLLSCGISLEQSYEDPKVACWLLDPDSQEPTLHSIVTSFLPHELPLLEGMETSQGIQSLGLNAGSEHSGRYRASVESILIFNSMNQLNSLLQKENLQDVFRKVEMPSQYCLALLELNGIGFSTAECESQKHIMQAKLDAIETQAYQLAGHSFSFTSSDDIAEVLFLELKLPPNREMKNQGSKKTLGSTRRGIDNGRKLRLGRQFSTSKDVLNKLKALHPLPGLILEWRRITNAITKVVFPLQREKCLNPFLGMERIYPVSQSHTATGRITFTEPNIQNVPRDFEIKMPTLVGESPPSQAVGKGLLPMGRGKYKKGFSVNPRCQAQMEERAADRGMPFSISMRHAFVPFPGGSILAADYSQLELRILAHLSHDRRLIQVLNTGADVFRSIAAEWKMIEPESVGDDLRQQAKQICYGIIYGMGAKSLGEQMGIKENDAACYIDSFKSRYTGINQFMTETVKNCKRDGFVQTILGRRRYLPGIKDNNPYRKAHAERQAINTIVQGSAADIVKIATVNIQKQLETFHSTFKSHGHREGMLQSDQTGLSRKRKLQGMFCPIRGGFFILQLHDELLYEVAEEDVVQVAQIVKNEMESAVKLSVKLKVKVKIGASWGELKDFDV

Target: isolated polymerase domain (I1780-V2590) of DNA polymerase theta (Polθ) (Homo sapiens (Human), UniProt O75417)
Experiment: biochemical

| Compound | IC50 [nM] |
| --- | --- |
| COC1(COc2ccc(-c3nc4c(OC5(C)CC5)ncnc4n3Cc3cc(C)ccn3)c(Cl)c2)COC1 [Example T333, 8-(2-chloro-4-((3-methoxyoxetan-3-yl)methoxy)phenyl)-6-(1-methylcyclopropoxy)-9-((4-methylpyridin-2-yl)methyl)-9H-purine] | 10 |
| Cc1ccnc(Cn2c(-c3ccc(OCCCO)cc3Cl)nc3c(OC4(C)CC4)ncnc32)c1 [Example T124, 3-(3-chloro-4-(6-(1-methylcyclopropoxy)-9-((4-methylpyridin-2-yl)methyl)-9H-purin-8-yl)phenoxy)propan-1-ol] | 6.31 |
| Cc1cnc(Cn2c(-c3ccc(OCCN(C)C)cc3Cl)nc3c(OC4(C)CC4)ncnc32)s1 [Example T72, 2-(3-chloro-4-(6-(1-methylcyclopropoxy)-9-((5-methylthiazol-2-yl)methyl)-9H-purin-8-yl)phenoxy)-N,N-dimethylethan-1-amine] | 7.94 |
| Cc1ccnc(Cn2c(-c3ccc(CCN4CCC(O)CC4)cc3Cl)nc3c(OC4(C)CC4)ncnc32)c1 [Example T591, 1-(3-chloro-4-(6-(1-methylcyclopropoxy)-9-((4-methylpyridin-2-yl)methyl)-9H-purin-8-yl)phenethyl)piperidin-4-ol] | 5.01 |
| COc1ccc(C#N)cc1Cn1c(-c2ccc(OCCC(C)C(=O)O)cc2Cl)nc2c(OC3(C)CC3)ncnc21 (racemic) [Example U14, 4-(3-chloro-4-(9-(5-cyano-2-methoxybenzyl)-6-(1-methylcyclopropoxy)-9H-purin-8-yl)phenoxy)-2-methylbutanoic acid] | 5.01 |
| CC1(Oc2ncnc3c2nc(-c2ccc(OCCN4CCNCC4)cc2Cl)n3Cc2cc(Cl)c(F)cn2)CC1 [Example T346, 8-(2-chloro-4-(2-(piperazin-1-yl)ethoxy)phenyl)-9-((4-chloro-5-fluoropyridin-2-yl)methyl)-6-(1-methylcyclopropoxy)-9H-purine] | 6.31 |
| Cc1ccnc(Cn2c(-c3ccc(C4CNC(=O)C4)cc3Cl)nc3c(OC4(C)CC4)ncnc32)c1 (single isomer, unassigned) [Example T174, 4-(3-chloro-4-(6-(1-methylcyclopropoxy)-9-((4-methylpyridin-2-yl)methyl)-9H-purin-8-yl)phenyl)pyrrolidin-2-one] | 10 |
| Cc1cccc(Cn2c(-c3ccc(CC(N)=O)cc3Cl)nc3c(OC4(C)CC4)ncnc32)n1 [Example T59, 2-(3-chloro-4-(6-(1-methylcyclopropoxy)-9-((6-methylpyridin-2-yl)methyl)-9H-purin-8-yl)phenyl)acetamide] | 25.1 |
| Cc1ccnc(Cn2c(-c3ccc(C(=O)NC(C)C)cc3Cl)nc3c(OC4(C)CC4)ncnc32)c1 [Example T211, 3-chloro-N-isopropyl-4-(6-(1-methylcyclopropoxy)-9-((4-methylpyridin-2-yl)methyl)-9H-purin-8-yl)benzamide] | 20 |
| Cc1ccnc(Cn2c(-c3ccc(OCC(=O)NC4(C)COC4)cc3Cl)nc3c(OC4(C)CC4)ncnc32)c1 [Example T476, 2-(3-chloro-4-(6-(1-methylcyclopropoxy)-9-((4-methylpyridin-2-yl)methyl)-9H-purin-8-yl)phenoxy)-N-(3-methyloxetan-3-yl)acetamide] | 7.94 |
| Cc1ccnc(Cn2c(-c3ccc(OCC(=O)NC[C@H](C)F)cc3Cl)nc3c(OC4(C)CC4)ncnc32)c1 [Example T327, (S)-2-(3-chloro-4-(6-(1-methylcyclopropoxy)-9-((4-methylpyridin-2-yl)methyl)-9H-purin-8-yl)phenoxy)-N-(2-fluoropropyl)acetamide] | 10 |
| C[C@H](CCOc1ccc(-c2nc3c(OC4(C)CC4)ncnc3n2Cc2cccc(C#N)c2)c(Cl)c1)C(=O)O [Example T401, (R)-4-(3-chloro-4-(9-(3-cyanobenzyl)-6-(1-methylcyclopropoxy)-9H-purin-8-yl)phenoxy)-2-methylbutanoic acid] | 3.98 |
| Cc1ccnc(Cn2c(-c3ccc(CCN4CCCC4)cc3Cl)nc3c(OC4(C)CC4)ncnc32)c1 [Example T505, 8-(2-chloro-4-(2-(pyrrolidin-1-yl)ethyl)phenyl)-6-(1-methylcyclopropoxy)-9-((4-methylpyridin-2-yl)methyl)-9H-purine] | 5.01 |
| Cc1ccnc(Cn2c(-c3ccc(CC(=O)N(C)CCO)cc3Cl)nc3c(OC4(C)CC4)ncnc32)c1 [Example T369, 2-(3-chloro-4-(6-(1-methylcyclopropoxy)-9-((4-methylpyridin-2-yl)methyl)-9H-purin-8-yl)phenyl)-N-(2-hydroxyethyl)-N-methylacetamide] | 7.94 |
| Cc1ccnc(Cn2c(-c3ccc(OCC(=O)N4CCNC(=O)C4)cc3Cl)nc3c(OC4(C)CC4)ncnc32)c1 [Example T432, 4-(2-(3-chloro-4-(6-(1-methylcyclopropoxy)-9-((4-methylpyridin-2-yl)methyl)-9H-purin-8-yl)phenoxy)acetyl)piperazin-2-one] | 12.6 |
| CNC(=O)N1CC[C@@H](Oc2ccc(-c3nc4c(OC5(C)CC5)ncnc4n3Cc3cc(C)ccn3)c(Cl)c2)C1 [Example T501, (R)-3-(3-chloro-4-(6-(1-methylcyclopropoxy)-9-((4-methylpyridin-2-yl)methyl)-9H-purin-8-yl)phenoxy)-N-methylpyrrolidine-1-carboxamide] | 7.94 |

| Compound | IC50 [nM] |
| --- | --- |
| Cc1ccnc(Cn2c(-c3ccc(OCC(=O)N[C@H](C)CCO)cc3Cl)nc3c(OC4(C)CC4)ncnc32)c1 [Example T516, (R)-2-(3-chloro-4-(6-(1-methylcyclopropoxy)-9-((4-methylpyridin-2-yl)methyl)-9H-purin-8-yl)phenoxy)-N-(4-hydroxybutan-2-yl)acetamide] | 10 |
| CC1(Oc2ncnc3c2nc(-c2cccc(OCCC(=O)O)c2Cl)n3Cc2cc(Cl)ccc2F)CC1 [Example U32, 3-(2-chloro-3-(9-(5-chloro-2-fluorobenzyl)-6-(1-methylcyclopropoxy)-9H-purin-8-yl)phenoxy)propanoic acid] | 7.94 |
| COCCOc1ccc(-c2nc3c(OC4(C)CC4)ncnc3n2Cc2cc(C)ccn2)c(Cl)c1 [Example T125, 8-(2-chloro-4-(2-methoxyethoxy)phenyl)-6-(1-methylcyclopropoxy)-9-((4-methylpyridin-2-yl)methyl)-9H-purine] | 7.94 |
| COc1cc(Cl)cc(Cn2c(-c3ccc(OCCC(C)C(=O)O)cc3Cl)nc3c(OC4(C)CC4)ncnc32)c1 (single isomer, unassigned) [Example T447, 4-(3-chloro-4-(9-(3-chloro-5-methoxybenzyl)-6-(1-methylcyclopropoxy)-9H-purin-8-yl)phenoxy)-2-methylbutanoic acid] | 3.16 |
| CC1(Oc2ncnc3c2nc(-c2ccc(CC(N)=O)cc2Cl)n3Cc2ccnc(C#N)c2)CC1 [Example T40, 2-(3-chloro-4-(9-((2-cyanopyridin-4-yl)methyl)-6-(1-methylcyclopropoxy)-9H-purin-8-yl)phenyl)acetamide] | 79.4 |
| CC1(Oc2ncnc3c2nc(-c2ccc(OCCOC(C)(C)C(=O)O)cc2Cl)n3Cc2cccc(Cl)c2)CC1 [Example T450, 2-(2-(3-chloro-4-(9-(3-chlorobenzyl)-6-(1-methylcyclopropoxy)-9H-purin-8-yl)phenoxy)ethoxy)-2-methylpropanoic acid] | 2.51 |
| Cc1ccnc(Cn2c(-c3ccc(OCC(=O)N(C)C)cc3Cl)nc3c(OC4(C)CC4)ncnc32)c1 [Example T216, 2-(3-chloro-4-(6-(1-methylcyclopropoxy)-9-((4-methylpyridin-2-yl)methyl)-9H-purin-8-yl)phenoxy)-N,N-dimethylacetamide] | 7.94 |
| CC1(Oc2ncnc3c2nc(-c2ccc(CC(N)=O)cc2Cl)n3Cc2ccccc2)CC1 [Example T48, 2-(4-(9-benzyl-6-(1-methylcyclopropoxy)-9H-purin-8-yl)-3-chlorophenyl)acetamide] | 6.31 |
| CNCCOc1ccc(-c2nc3c(OC4(C)CC4)ncnc3n2Cc2cc(C)ccn2)c(Cl)c1 [Example T137, 2-(3-chloro-4-(6-(1-methylcyclopropoxy)-9-((4-methylpyridin-2-yl)methyl)-9H-purin-8-yl)phenoxy)-N-methylethan-1-amine] | 7.94 |
| Cc1ccnc(Cn2c(-c3ccc(N4CCC5(CNC5)C4)cc3Cl)nc3c(OC4(C)CC4)ncnc32)c1 [Example T490, 8-(2-chloro-4-(2,6-diazaspiro[3.4]octan-6-yl)phenyl)-6-(1-methylcyclopropoxy)-9-((4-methylpyridin-2-yl)methyl)-9H-purine] | 7.94 |
| CN(C)CCCOc1ccc(-c2nc3c(OC4(C)CC4)ncnc3n2Cc2cc(Cl)ccn2)c(F)c1 [Example T231, 3-(4-(9-((4-chloropyridin-2-yl)methyl)-6-(1-methylcyclopropoxy)-9H-purin-8-yl)-3-fluorophenoxy)-N,N-dimethylpropan-1-amine] | 3.16 |
| CC(=O)NCCc1ccc(-c2nc3c(OC4(C)CC4)ncnc3n2Cc2cc(C)ccn2)c(Cl)c1 [Example T212, N-(3-chloro-4-(6-(1-methylcyclopropoxy)-9-((4-methylpyridin-2-yl)methyl)-9H-purin-8-yl)phenethyl)acetamide] | 6.31 |
| Cc1ccnc(Cn2c(-c3ccc(NC(=O)N(C)C)cc3Cl)nc3c(OC4(C)CC4)ncnc32)c1 [Example T130, 3-(3-chloro-4-(6-(1-methylcyclopropoxy)-9-((4-methylpyridin-2-yl)methyl)-9H-purin-8-yl)phenyl)-1,1-dimethylurea] | 5.01 |
| CC1(Oc2ncnc3c2nc(-c2ccc(CC(N)=O)cc2Cl)n3Cc2cccc(F)c2)CC1 [Example T42, 2-(3-chloro-4-(9-(3-fluorobenzyl)-6-(1-methylcyclopropoxy)-9H-purin-8-yl)phenyl)acetamide] | 7.94 |
| C#CCNC(=O)c1ccc(-c2nc3c(OC4(C)CC4)ncnc3n2Cc2cc(C)ccn2)c(Cl)c1 [Example T152, 3-chloro-4-(6-(1-methylcyclopropoxy)-9-((4-methylpyridin-2-yl)methyl)-9H-purin-8-yl)-N-(prop-2-yn-1-yl)benzamide] | 7.94 |
| Cc1ccnc(Cn2c(-c3ccc(OCCN4CC[C@@H](O)C4)cc3Cl)nc3c(OC4(C)CC4)ncnc32)c1 [Example T512, (R)-1-(2-(3-chloro-4-(6-(1-methylcyclopropoxy)-9-((4-methylpyridin-2-yl)methyl)-9H-purin-8-yl)phenoxy)ethyl)pyrrolidin-3-ol] | 5.01 |
